Test results: patent US20150133436A1, “Bromodomain Inhibitors For Treating Autoimmune And Inflammatory Diseases” (GlaxoSmithKline LLC, priority 2009, published 2015)

Experiments:
TNFα = test: Lipopolysaccharide (LPS) stimulated whole blood measuring TNFα levels assay; type: cell-based; settings: LPS 200 ng/ml, 24 hours, read-out: pIC50, TNFα levels in LPS stimulated whole blood (converted)
Description: Activation of monocytic cells by agonists of toll-like receptors such as bacterial lipopolysaccharide (LPS) results in production of key inflammatory mediators including TNFα. Such pathways are widely considered to be central to the pathophysiology of a range of auto-immune and inflammatory disorders.
After further incubation for 24 hours at 37 degrees, 140 ul of PBS are added to each well. The plates are sealed, shaken for 10 minutes and then centrifuged (2500 rpm×10 min). 100 ul of the supernatant are removed and TNFα levels assayed by immunoassay (typically by MesoScale Discovery technology) either immediately or following storage at −20 degrees. Dose response curves for each compound was generated from the data and an IC50 value was calculated.

[1] = test system: Balb/c male mice given a lethal dose of LPS; test: In vivo mouse endotoxemia model; settings: 15 mg/kg LPS i.p., compound 10 mg/kg intravenously ninety minutes later
From the text: High doses of Endotoxin (bacterial lipopolysaccharide) administered to animals produce a profound shock syndrome including a strong inflammatory response, dysregulation of cardiovascular function, organ failure and ultimately mortality. This pattern of response is very similar to human sepsis and septic shock, where the body's response to a significant bacterial infection can be similarly life threatening.
To test the compounds for use in the invention groups of eight Balb/c male mice were given a lethal dose of 15 mg/kg LPS by intraperitoneal injection. Ninety minutes later, animals were dosed intravenously with vehicle (20% cyclodextrin 1% ethanol in apyrogen water) or compound (10 mg/kg). The survival of animals was monitored at 4 days.

Compound: CCNC(=O)C[C@@H]1N=C(c2ccc(Cl)cc2)c2cc(OC)ccc2-n2c(C)nnc21 [Example 2, 2-[(4S)-6-(4-Chlorophenyl)-1-methyl-8-(methyloxy)-4H-[1,2,4]triazolo[4,3-a][1,4]benzodiazepin-4-yl]-N-ethylacetamide]
- IC50 (TNFα): ≤ 1000 nM
- Animals surviving at 4 days, percent [1]: (52%)
- Numbers of animals surviving at 4 days (summed across multiple repeat experiments) ([1]; survivors/total): 24/56
